Reference: ChEMBL document CHEMBL1128541 (J Med Chem, 1995)

Molecular target: cGMP-specific 3',5'-cyclic phosphodiesterase (Homo sapiens, UniProt O76074)
Test: Inhibitory activity against phosphodiesterase 5 from human platelets

IC50 [nM] | SMILES
1200 | c1ccc(Nc2nc(-c3ccncc3)nc3ccccc23)cc1
1300 | O=[N+]([O-])c1cccc(CNc2nc(-c3ccccc3)nc3ccccc23)c1
